The values below are quoted from earlier work in PMC3515962.

Sequences of proteins named here, by UniProt entry; tags and fusion partners are left off. Residues count along the entry.
UniProt P01589, 22-240, chain 1 of 3: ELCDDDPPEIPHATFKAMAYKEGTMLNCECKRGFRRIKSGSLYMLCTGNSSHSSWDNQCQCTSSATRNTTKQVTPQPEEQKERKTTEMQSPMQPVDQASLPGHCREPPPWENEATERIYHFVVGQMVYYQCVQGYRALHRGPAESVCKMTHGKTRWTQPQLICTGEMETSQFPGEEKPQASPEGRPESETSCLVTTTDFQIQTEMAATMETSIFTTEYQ
UniProt P60568, 21-153: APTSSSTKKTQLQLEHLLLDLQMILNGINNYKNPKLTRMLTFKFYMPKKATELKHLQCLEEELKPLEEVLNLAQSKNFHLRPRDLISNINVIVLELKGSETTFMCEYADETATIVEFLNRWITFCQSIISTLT

The term Kd denotes the constant that tells how readily two partners part at equilibrium.

For this series, the target named is IL-2 receptor (Homo sapiens) (UniProt P01589). Kind of series: radioligand binding.

Consider TCGF (IL-2) (from UniProt P60568), for which the Kd was 7.5 pM.
